Permeability data for macrocyclic peptides

Data: CycPeptMPDB; original report Furukawa et al. 2016, doi:10.1021/acs.jmedchem.6b01246.

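Lipid, pH, incubation time, direction and concentration are not recorded in the data file. Other peptides of the study may be missing here. Peptides that the database sets to -10, its floor, are left out.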

PAMPA measures passive passage through an artificial lipid membrane.
Permeability is in 10^-6 cm/s, converted from the database's log10 values; higher is more permeable.

SMILES,PAMPA (10^-6 cm/s)
CCCC[C@@H]1NC(=O)[C@@H](CC(C)C)NC(=O)CN(CC2CCOCC2)C(=O)[C@@H](Cc2ccccc2)NC(=O)CN(Cc2ccc3c(c2)OCO3)C(=O)[C@H]2CCCN2C1=O,5.4
CCCC[C@@H]1NC(=O)[C@H](CC(C)C)NC(=O)CN(CC2CCCCC2)C(=O)[C@H](Cc2ccccc2)NC(=O)CN(CCCOC(C)C)C(=O)[C@@H]2CCCN2C1=O,13
CCCC[C@@H]1NC(=O)[C@H](CC(C)C)N(C)C(=O)CN(CC2CCCCC2)C(=O)[C@@H](Cc2ccccc2)NC(=O)CN(Cc2ccc3c(c2)OCO3)C(=O)[C@@H]2CCCN2C1=O,1.1
CCCC[C@@H]1NC(=O)[C@H](CC(C)C)NC(=O)CN(CC2CCCCC2)C(=O)[C@@H](C)NC(=O)CN(Cc2ccc3c(c2)OCO3)C(=O)[C@@H]2CCCN2C1=O,4.1
CCCC[C@@H]1NC(=O)[C@@H](CC(C)C)N(C)C(=O)CN(CC2CCOCC2)C(=O)[C@@H](C)NC(=O)CN(CCCOC(C)C)C(=O)[C@@H]2CCCN2C1=O,0.038
CCCCCN1CC(=O)N(C)[C@@H](CC(C)C)C(=O)N[C@@H](CCCC)C(=O)N2CCC[C@H]2C(=O)N(Cc2ccc3c(c2)OCO3)CC(=O)N[C@@H](Cc2ccccc2)C1=O,0.87
CCCCCN1CC(=O)N(C)[C@@H](CC(C)C)C(=O)N[C@@H](CCCC)C(=O)N2CCC[C@H]2C(=O)N(CCCOC(C)C)CC(=O)N[C@H](Cc2ccccc2)C1=O,8.1
CCCCCN1CC(=O)N(C)[C@@H](CC(C)C)C(=O)N[C@@H](CCCC)C(=O)N2CCC[C@@H]2C(=O)N(CCCOC(C)C)CC(=O)N[C@@H](C)C1=O,11
CCCC[C@@H]1NC(=O)[C@@H](CC(C)C)NC(=O)CN(CC2CCCCC2)C(=O)[C@H](C)NC(=O)CN(CCCOC(C)C)C(=O)[C@@H]2CCCN2C1=O,5.1
CCCCCN1CC(=O)N[C@@H](CC(C)C)C(=O)N[C@@H](CCCC)C(=O)N2CCC[C@H]2C(=O)N(CCCOC(C)C)CC(=O)N[C@@H](C)C1=O,0.78
CCCC[C@@H]1NC(=O)[C@@H](CC(C)C)NC(=O)CN(CC2CCOCC2)C(=O)[C@H](C)NC(=O)CN(CC)C(=O)[C@@H]2CCCN2C1=O,0.033
CCCC[C@@H]1NC(=O)[C@H](CC(C)C)NC(=O)CN(CC2CCOCC2)C(=O)[C@H](C)NC(=O)CN(Cc2ccc3c(c2)OCO3)C(=O)[C@H]2CCCN2C1=O,0.46
CCCCCN1CC(=O)N(C)[C@H](CC(C)C)C(=O)N[C@@H](CCCC)C(=O)N2CCC[C@H]2C(=O)N(CCCOC(C)C)CC(=O)N[C@@H](C)C1=O,12
CCCC[C@@H]1NC(=O)[C@@H](CC(C)C)NC(=O)CN(CC2CCCCC2)C(=O)[C@H](C)NC(=O)CN(CC)C(=O)[C@H]2CCCN2C1=O,2.6
CCCC[C@@H]1NC(=O)[C@@H](CC(C)C)N(C)C(=O)CN(CC2CCCCC2)C(=O)[C@@H](C)NC(=O)CN(Cc2ccc3c(c2)OCO3)C(=O)[C@@H]2CCCN2C1=O,7.9
CCCC[C@@H]1NC(=O)[C@@H](CC(C)C)NC(=O)CN(CC2CCOCC2)C(=O)[C@H](C)NC(=O)CN(CCCOC(C)C)C(=O)[C@@H]2CCCN2C1=O,0.15
CCCC[C@@H]1NC(=O)[C@@H](CC(C)C)N(C)C(=O)CN(CC2CCCCC2)C(=O)[C@H](C)NC(=O)CN(Cc2ccc3c(c2)OCO3)C(=O)[C@H]2CCCN2C1=O,6.8
CCCCCN1CC(=O)N[C@@H](CC(C)C)C(=O)N[C@@H](CCCC)C(=O)N2CCC[C@H]2C(=O)N(CC)CC(=O)N[C@@H](Cc2ccccc2)C1=O,5.9
CCCC[C@@H]1NC(=O)[C@@H](CC(C)C)NC(=O)CN(CC2CCCCC2)C(=O)[C@H](Cc2ccccc2)NC(=O)CN(Cc2ccc3c(c2)OCO3)C(=O)[C@@H]2CCCN2C1=O,2.5
CCCC[C@@H]1NC(=O)[C@@H](CC(C)C)N(C)C(=O)CN(CC2CCCCC2)C(=O)[C@@H](C)NC(=O)CN(CC)C(=O)[C@@H]2CCCN2C1=O,1.8

Excerpt, the final 2 entries:

| SMILES | PAMPA (10^-6 cm/s) |
|---|---|
| CCCC[C@@H]1NC(=O)[C@@H](CC(C)C)NC(=O)CN(CC2CCCCC2)C(=O)[C@H](Cc2ccccc2)NC(=O)CN(Cc2ccc3c(c2)OCO3)C(=O)[C@@H]2CCCN2C1=O | 2.5 |
| CCCC[C@@H]1NC(=O)[C@@H](CC(C)C)N(C)C(=O)CN(CC2CCCCC2)C(=O)[C@@H](C)NC(=O)CN(CC)C(=O)[C@@H]2CCCN2C1=O | 1.8 |